By UniProt entry, the sequences of proteins in these tests, tags left out.
UniProt P04049, whole entry Y340E/Y341E: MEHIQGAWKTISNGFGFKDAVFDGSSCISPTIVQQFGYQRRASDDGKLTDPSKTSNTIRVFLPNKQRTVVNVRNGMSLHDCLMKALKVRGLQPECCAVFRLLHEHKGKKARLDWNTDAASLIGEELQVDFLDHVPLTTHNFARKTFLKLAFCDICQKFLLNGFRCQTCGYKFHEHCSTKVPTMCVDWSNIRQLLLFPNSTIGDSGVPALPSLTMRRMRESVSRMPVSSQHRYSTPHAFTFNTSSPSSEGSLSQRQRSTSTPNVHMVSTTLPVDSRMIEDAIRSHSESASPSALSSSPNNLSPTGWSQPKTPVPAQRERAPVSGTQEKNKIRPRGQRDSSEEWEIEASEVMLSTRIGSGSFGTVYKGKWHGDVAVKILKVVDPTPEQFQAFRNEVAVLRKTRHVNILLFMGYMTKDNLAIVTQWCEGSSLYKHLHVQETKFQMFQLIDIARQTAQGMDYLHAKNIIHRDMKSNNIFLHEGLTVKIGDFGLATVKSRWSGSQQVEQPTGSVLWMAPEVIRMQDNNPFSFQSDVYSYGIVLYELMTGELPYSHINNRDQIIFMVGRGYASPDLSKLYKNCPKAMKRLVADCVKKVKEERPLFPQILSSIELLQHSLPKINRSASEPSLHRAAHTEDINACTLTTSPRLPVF

The first test concerns the target C-Raf FL (full-length C-Raf protein, Y340E and Y341E activating mutations) (Homo sapiens (Human), UniProt P04049, Y340E/Y341E). Format: biochemical. The note with it: AlphaScreen, 60 min pre-incubation, 1 hour reaction; read-out: c-Raf FL IC-50. For orientation: Alpha assays give light when donor and acceptor beads are brought close together.
For the molecule `Cc1ccc(NC(=O)c2ccnc(C(C)(F)F)c2)cc1-c1cc(N2CCOCC2)nc(N2CC(O)C2)n1` [Example 772, 2-(1,1-difluoroethyl)-N-(3-(2-(3-hydroxyazetidin-1-yl)-6-morpholinopyrimidin-4-yl)-4-methylphenyl)isonicotinamide], the IC50 came out at 0.6 nM. On the same count and under the same terms, the figure for `Cc1ccc(NC(=O)c2cnnc(C3CC3)c2)cc1-c1cc(N2CCOCC2)c(=O)n(C)n1` [Example 644, 6-cyclopropyl-N-(4-methyl-3-(1-methyl-5-morpholino-6-oxo-1,6-dihydropyridazin-3-yl)-phenyl)pyridazine-4-carboxamide] is 0.9 nM; for `CCOc1nnc(-c2cc(NC(=O)c3ccc(CNC)c(C(F)(F)F)c3)cnc2C)cc1N1CCOCC1` [Example 626, N-(5-(6-ethoxy-5-morpholinopyridazin-3-yl)-6-methylpyridin-3-yl)-4-((methylamino)methyl)-3-(trifluoromethyl)benzamide] it is 3.8 nM. Consider `Cc1ccc(NC(=O)c2cc(C(F)(F)F)ccn2)cc1-c1cc(N2CCOCC2)c(OC(C)C)nn1` [Example 594, N-(3-(6-isopropoxy-5-morpholinopyridazin-3-yl)-4-methylphenyl)-4-(trifluoromethyl)picolinamide], for which the IC50 is 0.2 nM. Same read-out and setting: the figure for `Cc1ccc(NC(=O)c2ccnc(C(C)(C)C#N)c2)cc1-c1cc(N2CCOCC2)nc(NC2(CO)CCOCC2)n1` [Example 754, 2-(2-cyanopropan-2-yl)-N-(3-(2-((4-(hydroxymethyl)tetrahydro-2H-pyran-4-yl)amino)-6-morpholinopyrimidin-4-yl)-4-methylphenyl)isonicotinamide] is 1 nM; for `COCCOc1nnc(-c2cc(NC(=O)c3ccnc(C(F)F)c3)ccc2C)cc1N1CCOCC1` [Example 598, 2-(difluoromethyl)-N-(3-(6-(2-methoxyethoxy)-5-morpholinopyridazin-3-yl)-4-methylphenyl)isonicotinamide] it is 0.5 nM; for `Cc1ccc(NC(=O)c2ccnc(C3COC3)c2)cc1-c1cc(N2CCOCC2)c(=O)n(C)n1` [Example 648, N-(4-methyl-3-(1-methyl-5-morpholino-6-oxo-1,6-dihydropyridazin-3-yl)phenyl)-2-(oxetan-3-yl)isonicotinamide] it is 1.2 nM. On to `Cc1ccc(C(=O)Nc2cccc(C(C)(C)O)c2)cc1-c1cc(N2CCOCC2)n(C)c(=O)c1` [Example 516, N-(3-(2-hydroxypropan-2-yl)phenyl)-4-methyl-3-(1-methyl-6-morpholino-2-oxo-1,2-dihydropyridin-4-yl)benzamide], for which the IC50 worked out at 6.5 nM.

Still in this test, the particulars now being: AlphaScreen, 60 min pre-incubation, reaction 1 hour at room temperature; read-out: c-Raf FL IC-50.
As to `Cc1ncc(NC(=O)c2cccc(C(F)(F)F)c2)cc1-c1cnc(OCCOCCO)c(N2CCOCC2)c1` [Example 1033, N-(6′-(2-(2-hydroxyethoxy)ethoxy)-2-methyl-5′-morpholino-[3,3-bipyridin]-5-yl)-3-(trifluoromethyl)benzamide], the IC50 stood at 0.59 nM. On the same count and under the same terms, next, `Cc1ncc(NC(=O)c2cccc(C(F)(F)F)c2)cc1-c1cnc(CC2(O)CCOCC2)c(N2CCOCC2)c1` [Example 993, N-(6′-((4-hydroxytetrahydro-2H-pyran-4-yl)methyl)-2-methyl-5′-morpholino-[3,3′-bipyridin]-5-yl)-3-(trifluoromethyl)benzamide]: 2.49 nM; `Cc1ncc(NC(=O)c2cccc(C(F)(F)F)c2)cc1-c1cnc(OC[C@@H](C)O)c(N2CCOCC2)c1` [Example 984, (R)—N-(6′-(2-hydroxypropoxy)-2-methyl-5′-morpholino-[3,3′-bipyridin]-5-yl)-3-(trifluoromethyl)benzamide]: 0.51 nM; `Cc1ccc(NC(=O)c2cccc(-c3nnco3)c2)cc1-c1cc(N2CCOCC2)nc(N2CC(O)C2)c1` [Example 1100, N-(3-(2-(3-hydroxyazetidin-1-yl)-6-morpholinopyridin-4-yl)-4-methylphenyl)-3-(1,3,4-oxadiazol-2-yl)benzamide]: 0.68 nM. For `Cc1ccc(NC(=O)c2ccnc(C(F)F)c2)cc1-c1cc(NCCO)nc(N2CCOCC2)c1F` [Example 1009, 2-(difluoromethyl)-N-(3-(3-fluoro-6-((2-hydroxyethyl)amino)-2-morpholinopyridin-4-yl)-4-methylphenyl)isonicotinamide], the IC50 amounted to 2.63 nM. Same read-out and setting: next, `Cc1ccc(NC(=O)c2cccc(S(C)(=O)=O)c2)cc1-c1cc(N2CCOCC2)nc(N2CC(C)(O)C2)c1` [Example 1074, N-(3-(2-(3-hydroxy-3-methylazetidin-1-yl)-6-morpholinopyridin-4-yl)-4-methylphenyl)-3-(methylsulfonyl)benzamide]: 0.57 nM.

The same test, now with this note: Table 2; AlphaScreen, 1 hour reaction; read-out: c-Raf FL IC-50.
In the case of `CCOc1ncc(-c2cc(NC(=O)c3cnnc(C(F)(F)F)c3)cnc2C)cc1N1CCOCC1` [Example 259, N-(6′-ethoxy-2-methyl-5′-morpholino-[3,3′-bipyridin]-5-yl)-6-(trifluoromethyl)pyridazine-4-carboxamide], the IC50 is 1.5 nM. Same read-out and setting: the figure for `CCOc1ncc(-c2cc(NC(=O)c3cnnc(C(F)(F)F)c3)cnc2C)cc1N1CCOC[C@H]1C` [Example 285] is 51.9 nM; for `Cc1ccc(NC(=O)c2cccc(C3(C#N)CC3)c2Cl)cc1-c1cc(N2CCOCC2)c(=O)n(C)c1` [Example 346, 2-chloro-3-(1-cyanocyclopropyl)-N-(4-methyl-3-(1-methyl-5-morpholino-6-oxo-1,6-dihydropyridin-3-yl)phenyl)benzamide] it is 1.6 nM. The same measure, in the same setting: the figure for `Cn1cc(-c2cc(NC(=O)c3cccc(C(F)F)c3)ccc2F)cc(N2CCOCC2)c1=O` [Example 417, 3-(difluoromethyl)-N-(4-fluoro-3-(1-methyl-5-morpholino-6-oxo-1,6-dihydropyridin-3-yl)phenyl)benzamide] is 0.6 nM; for `Cc1ccc(NC(=O)c2cccc(C(F)(F)F)c2)cc1-c1cc(N2CCOCC2)nc(N2CCCC2=O)n1` [Example 36, N-(4-methyl-3-(6-morpholino-2-(2-oxopyrrolidin-1-yl)pyrimidin-4-yl)phenyl)-3-(trifluoromethyl)benzamide] it is 0.5 nM. The same measure, in the same setting: the figure for `Cc1ncc(NC(=O)c2ccnc(C(C)(C)F)c2)cc1-c1cnc(F)c(N2CCOCC2)c1` [Example 298, N-(6′-fluoro-2-methyl-5′-morpholino-[3,3′-bipyridin]-5-yl)-2-(2-fluoropropan-2-yl)isonicotinamide] is 1.9 nM; for `Cc1ncc(NC(=O)c2ccnc(C(C)(C)F)c2)cc1-c1cncc(N2CCOCC2)c1` [Example 294, 2-(2-fluoropropan-2-yl)-N-(2-methyl-5′-morpholino-[3,3′-bipyridin]-5-yl)isonicotinamide] it is 2.7 nM; for `Cc1ncc(NC(=O)c2cccc(C(F)(F)F)c2)cc1-c1cnc(O[C@@H]2CCOC2)c(N2CCOCC2)c1` [Example 311, (R)—N-(2-methyl-5′-morpholino-6′-((tetrahydrofuran-3-yl)oxy)-[3,3′-bipyridin]-5-yl)-3-(trifluoromethyl)benzamide] it is 0.9 nM. `COc1ncc(-c2cc(NC(=O)c3ccnc(C4(C#N)CC4)c3)cnc2C)cc1N1CCOCC1` [Example 283, 2-(1-cyanocyclopropyl)-N-(6′-methoxy-2-methyl-5-morpholino-[3,3′-bipyridin]-5-yl)isonicotinamide]: the IC50 was 1.2 nM.
